For the test, the target named is HCV NS3 protease (Hepatitis C virus genotype 1a (isolate H77) (HCV), UniProt P27958). The test can be described thus: biochemical.

Protein sequences, listed by entry. Tags and fused reporters are not part of them. Residues count along the entry.
UniProt P27958, 1027-1208: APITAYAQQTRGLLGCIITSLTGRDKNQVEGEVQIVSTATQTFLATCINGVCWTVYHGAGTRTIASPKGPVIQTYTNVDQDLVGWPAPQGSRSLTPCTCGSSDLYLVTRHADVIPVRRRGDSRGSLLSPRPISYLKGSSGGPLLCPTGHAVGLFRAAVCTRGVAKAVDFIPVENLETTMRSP

The text below walks through data of patent US8476225B2, “Antiviral compounds” (Gilead Sciences, Inc., priority 2009, dated 2013).

As to `C=C[C@@H]1C[C@]1(NC(=O)[C@@H]1CN(c2ccccc2)CN1C(=O)[C@@H](NC(=O)OC1CCCC1)C(C)(C)C)C(=O)NS(=O)(=O)C1CC1` [Example 28], the IC50 – broadly, the concentration at which inhibition is half-maximal – worked out at 19 nM.

Take `C=C[C@@H]1C[C@]1(NC(=O)[C@@H]1CN(c2ccc(-c3ccc(F)cc3)cc2)CN1C(=O)[C@@H](NC(=O)OC1CCCC1)C(C)(C)C)C(=O)NS(=O)(=O)C1CC1` [Example 43]: 45 nM corresponded to half-maximal inhibition (IC50).

Consider `C=C[C@@H]1C[C@]1(NC(=O)[C@@H]1CN(S(=O)(=O)c2ccc(F)cc2)CN1C(=O)[C@@H](NC(=O)OC1CCCC1)C(C)(C)C)C(=O)NS(=O)(=O)C1CC1` [Example 10], for which the IC50 was 4 nM.

In turn, `C=C[C@@H]1C[C@]1(NC(=O)[C@@H]1CN(c2ccc(-c3ccccc3F)cc2)CN1C(=O)[C@@H](NC(=O)OC1CCCC1)C(C)(C)C)C(=O)NS(=O)(=O)C1CC1` [Example 40] had an IC50 of 34 nM. Against the preceding molecule, the IC50 is about 8.5-fold higher.

In turn, `C=C[C@@H]1C[C@]1(NC(=O)[C@@H]1CN(S(=O)(=O)c2cccc3cccnc23)CN1C(=O)[C@@H](NC(=O)OC1CCCC1)C(C)(C)C)C(=O)NS(=O)(=O)C1CC1` [Example 13] had an IC50 of 160 nM.

Molecule `C=C[C@@H]1C[C@]1(NC(=O)[C@@H]1CN(c2ccc(-c3cnc(N)nc3)cc2)CN1C(=O)[C@@H](NC(=O)OC1CCCC1)C(C)(C)C)C(=O)NS(=O)(=O)C1CC1` [Example 49] returned an IC50 of 16000 nM.

For `C=C[C@@H]1C[C@]1(NC(=O)[C@@H]1CN(c2cc(Cl)nc(OC)n2)CN1C(=O)[C@@H](NC(=O)OC1CCCC1)C(C)(C)C)C(=O)NS(=O)(=O)C1CC1` [Example 54], the midpoint of inhibition, the IC50, lay at 1000 nM.

The molecule `C=C[C@@H]1C[C@]1(NC(=O)[C@@H]1CN(c2cccc(-c3ccccc3)c2)CN1C(=O)[C@@H](NC(=O)OC1CCCC1)C(C)(C)C)C(=O)NS(=O)(=O)C1CC1` [Example 30] yielded an IC50 of 13 nM.

In turn, `C=C[C@@H]1C[C@]1(NC(=O)[C@@H]1CN(S(=O)(=O)c2ccccc2Br)CN1C(=O)[C@@H](NC(=O)OC1CCCC1)C(C)(C)C)C(=O)NS(=O)(=O)C1CC1` [Example 61] yielded an IC50 of 20 nM.

`CCC[C@H](NC(=O)[C@@H]1CN(c2ccc(-c3ccccc3)cc2)CN1C(=O)[C@@H](NC(=O)OC1CCCC1)C(C)(C)C)C(=O)C(=O)NC1CC1` [Example 51] showed an IC50 of 940 nM.

In turn, `C=C[C@@H]1C[C@]1(NC(=O)[C@@H]1CN(c2cc(OC)nc(Cl)n2)CN1C(=O)[C@@H](NC(=O)OC1CCCC1)C(C)(C)C)C(=O)NS(=O)(=O)C1CC1` [Example 55] had an IC50 of 1090 nM.

`C=C[C@@H]1C[C@]1(NC(=O)[C@@H]1CN(C(=O)Nc2ccccc2)CN1C(=O)[C@@H](NC(=O)OC1CCCC1)C(C)(C)C)C(=O)NS(=O)(=O)C1CC1` [Example 26] had an IC50 of 640 nM.

The molecule `C=C[C@@H]1C[C@]1(NC(=O)[C@@H]1CN(c2cc(Nc3ccccc3)nc(OC)n2)CN1C(=O)[C@@H](NC(=O)OC1CCCC1)C(C)(C)C)C(=O)NS(=O)(=O)C1CC1` [Example 66] yielded an IC50 of 610 nM.

In turn, `C=C[C@@H]1C[C@]1(NC(=O)[C@@H]1CN(S(=O)(=O)c2ccccc2F)CN1C(=O)[C@@H](NC(=O)OC1CCCC1)C(C)(C)C)C(=O)NS(=O)(=O)C1CC1` [Example 8] showed an IC50 of 11 nM.

Molecule `C=C[C@@H]1C[C@]1(NC(=O)[C@@H]1CN(c2ccc(-c3ccc(C#N)cc3)cc2)CN1C(=O)[C@@H](NC(=O)OC1CCCC1)C(C)(C)C)C(=O)NS(=O)(=O)C1CC1` [Example 48] yielded an IC50 of 28 nM.

Consider `C=C[C@@H]1C[C@]1(NC(=O)[C@@H]1CN(c2ccc(-c3ccccc3)cc2)C(=O)N1C(=O)[C@@H](NC(=O)OC1CCCC1)C(C)(C)C)C(=O)NS(=O)(=O)C1CC1` [Example 57], for which the IC50 is 610 nM.

Take `C=C[C@@H]1C[C@]1(NC(=O)[C@@H]1CN(c2ccc(Br)cc2)CN1C(=O)[C@@H](NC(=O)OC1CCCC1)C(C)(C)C)C(=O)NS(=O)(=O)C1CC1` [Example 29]: it took 41 nM to reach half-maximal inhibition (IC50).

Take `C=C[C@@H]1C[C@]1(NC(=O)[C@@H]1CN(CCc2ccccc2)CN1C(=O)[C@@H](NC(=O)OC1CCCC1)C(C)(C)C)C(=O)NS(=O)(=O)C1CC1` [Example 5]: the IC50 came out at 13 nM.

The molecule `C=C[C@@H]1C[C@]1(NC(=O)[C@@H]1CN(S(=O)(=O)c2ccc(Br)cc2)CN1C(=O)[C@@H](NC(=O)OC1CCCC1)C(C)(C)C)C(=O)NS(=O)(=O)C1CC1` [Example 14] registered an IC50 of 2 nM.

`C=C[C@@H]1C[C@]1(NC(=O)[C@@H]1CN(S(=O)(=O)c2ccccc2Cl)CN1C(=O)[C@@H](NC(=O)OC1CCCC1)C(C)(C)C)C(=O)NS(=O)(=O)C1CC1` [Example 17] gave an IC50 of 16 nM. Against the preceding molecule, the IC50 is about 8-fold higher.

The molecule `C=C[C@@H]1C[C@]1(NC(=O)[C@@H]1CN(Cc2ccccc2)CN1C(=O)[C@@H](NC(=O)OC1CCCC1)C(C)(C)C)C(=O)NS(=O)(=O)C1CC1` [Example 1] returned an IC50 of 195 nM.

As to `C=C[C@@H]1C[C@]1(NC(=O)[C@@H]1CN(c2cc(-c3ccccc3)nc(OC)n2)CN1C(=O)[C@@H](NC(=O)OC1CCCC1)C(C)(C)C)C(=O)NS(=O)(=O)C1CC1` [Example 62], the IC50 came out at 1420 nM.

Molecule `C=C[C@@H]1C[C@]1(NC(=O)[C@@H]1CN(c2ccc(N3CCCCC3)cc2)CN1C(=O)[C@@H](NC(=O)OC1CCCC1)C(C)(C)C)C(=O)NS(=O)(=O)C1CC1` [Example 31] showed an IC50 of 9 nM.

`C=C[C@@H]1C[C@]1(NC(=O)[C@@H]1CN(c2ccc(-c3cccc(F)c3)cc2)CN1C(=O)[C@@H](NC(=O)OC1CCCC1)C(C)(C)C)C(=O)NS(=O)(=O)C1CC1` [Example 42]: the midpoint of inhibition, the IC50, lay at 82 nM.

`C=C[C@@H]1C[C@]1(NC(=O)[C@@H]1CN(c2cc(N3CCCCC3)nc(OC)n2)CN1C(=O)[C@@H](NC(=O)OC1CCCC1)C(C)(C)C)C(=O)NS(=O)(=O)C1CC1` [Example 63]: the IC50 was determined as 1430 nM. This IC50 is about 17-fold higher than that of the molecule before.

With `C=C[C@@H]1C[C@]1(NC(=O)[C@@H]1CN(S(=O)(=O)c2ccccc2)CN1C(=O)[C@@H](NC(=O)OC1CCCC1)C(C)(C)C)C(=O)NS(=O)(=O)C1CC1` [Example 7], 5 nM corresponded to half-maximal inhibition (IC50). This IC50 lies about 290-fold lower than the previous one.

`C=C[C@@H]1C[C@]1(NC(=O)[C@@H]1CN(c2ccc(C(C)C)cc2)CN1C(=O)[C@@H](NC(=O)OC1CCCC1)C(C)(C)C)C(=O)NS(=O)(=O)C1CC1` [Example 36] yielded an IC50 of 16 nM. Against the preceding molecule, the IC50 is about 3.2-fold higher.

In turn, `CC(C)(C)[C@H](NC(=O)OC1CCCC1)C(=O)N1CN(Cc2ccccc2)C[C@H]1C(=O)NC(CC1CCC1)C(=O)C(N)=O` (stereo partly drawn) [Example 52] gave an IC50 of 4200 nM.

`C=C[C@@H]1C[C@]1(NC(=O)[C@@H]1CN(CC(=O)c2ccccc2)CN1C(=O)[C@@H](NC(=O)OC1CCCC1)C(C)(C)C)C(=O)NS(=O)(=O)C1CC1` [Example 4] showed an IC50 of 21 nM.

In turn, `C=C[C@@H]1C[C@]1(NC(=O)[C@@H]1CN(S(=O)(=O)c2ccc(N3CCCCC3)cc2)CN1C(=O)[C@@H](NC(=O)OC1CCCC1)C(C)(C)C)C(=O)NS(=O)(=O)C1CC1` [Example 50] showed an IC50 of 3 nM.

The molecule `C=C[C@@H]1C[C@]1(NC(=O)[C@@H]1CN(c2ccc(-c3ccsc3)cc2)CN1C(=O)[C@@H](NC(=O)OC1CCCC1)C(C)(C)C)C(=O)NS(=O)(=O)C1CC1` [Example 44] returned an IC50 of 40 nM. This IC50 lies about 13-fold higher than the previous one.

For `C=C[C@@H]1C[C@]1(NC(=O)[C@@H]1CN(S(=O)(=O)Cc2ccccc2)CN1C(=O)[C@@H](NC(=O)OC1CCCC1)C(C)(C)C)C(=O)NS(=O)(=O)C1CC1` [Example 25], the IC50 is 14 nM.

Consider `C=C[C@@H]1C[C@]1(NC(=O)[C@@H]1CN(c2ccc(-c3ccccc3)cc2)CN1C(=O)[C@@H](NC(=O)OC1CCCC1)C(C)(C)C)C(=O)NS(=O)(=O)C1CC1` [Example 34], for which the half-inhibitory concentration (IC50) came to 2 nM.
